Measured values: US20250381291A1 (Seagen, published 2025)

T1: hCEACAM5 A2-B2 domains fragment (A2B2) with C-terminal polyhistidine tag (human, UniProt P06731 321-498)
T1 construct: also called A2B2 fragment of human CEACAM5; not shown: C-terminal polyhistidine tag
T1 sequence: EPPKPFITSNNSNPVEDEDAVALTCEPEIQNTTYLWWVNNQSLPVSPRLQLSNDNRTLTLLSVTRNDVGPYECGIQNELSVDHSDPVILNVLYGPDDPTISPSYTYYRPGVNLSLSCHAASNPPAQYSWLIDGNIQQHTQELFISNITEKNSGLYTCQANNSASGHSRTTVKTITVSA

T2: Extracellular domain (ECD) of cynomolgus CEACAM5 with polyhistidine tag (Sino Biological, 90891-C08H) (cynomolgus monkey)
T2 construct: Bought protein; also called cCEACAM5 ECD; ECD of cyno CEACAM5; not shown: polyhistidine tag
T2 chain: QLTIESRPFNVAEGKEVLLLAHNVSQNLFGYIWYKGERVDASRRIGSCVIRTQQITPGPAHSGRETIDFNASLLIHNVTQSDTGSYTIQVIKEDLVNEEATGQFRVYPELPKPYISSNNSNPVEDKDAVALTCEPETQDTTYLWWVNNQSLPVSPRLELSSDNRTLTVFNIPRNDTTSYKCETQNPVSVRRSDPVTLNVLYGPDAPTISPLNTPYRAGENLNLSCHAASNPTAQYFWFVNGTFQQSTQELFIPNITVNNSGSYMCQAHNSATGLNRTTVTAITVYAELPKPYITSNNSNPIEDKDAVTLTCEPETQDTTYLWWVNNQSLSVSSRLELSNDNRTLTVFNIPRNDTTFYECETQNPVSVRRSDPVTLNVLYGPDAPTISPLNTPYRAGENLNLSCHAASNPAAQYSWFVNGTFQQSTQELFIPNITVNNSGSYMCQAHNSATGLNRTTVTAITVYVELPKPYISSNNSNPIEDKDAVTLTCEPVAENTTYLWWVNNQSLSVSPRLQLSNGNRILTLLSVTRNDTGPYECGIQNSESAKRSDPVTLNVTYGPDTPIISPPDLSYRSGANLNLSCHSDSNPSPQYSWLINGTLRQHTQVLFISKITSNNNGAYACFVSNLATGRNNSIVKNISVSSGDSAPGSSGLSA

T3: hCEACAM5 A3-B3 domains fragment (A3B3) with C-terminal polyhistidine tag (human, UniProt P06731 499-685)
T3 construct: also called A3B3 fragment of human CEACAM5; A2B3 (as printed once); not shown: C-terminal polyhistidine tag
T3 sequence: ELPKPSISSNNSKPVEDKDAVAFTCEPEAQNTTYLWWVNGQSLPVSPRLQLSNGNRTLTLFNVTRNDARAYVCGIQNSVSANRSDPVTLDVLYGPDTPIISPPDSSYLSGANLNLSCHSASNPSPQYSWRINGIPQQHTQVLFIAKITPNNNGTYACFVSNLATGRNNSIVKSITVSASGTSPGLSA

T4: Human CEACAM8 on HEK293T cells (human, UniProt P31997 35-320)
T4 construct: Stably transfected HEK293T cells; also called hCEACAM8
T4 sequence: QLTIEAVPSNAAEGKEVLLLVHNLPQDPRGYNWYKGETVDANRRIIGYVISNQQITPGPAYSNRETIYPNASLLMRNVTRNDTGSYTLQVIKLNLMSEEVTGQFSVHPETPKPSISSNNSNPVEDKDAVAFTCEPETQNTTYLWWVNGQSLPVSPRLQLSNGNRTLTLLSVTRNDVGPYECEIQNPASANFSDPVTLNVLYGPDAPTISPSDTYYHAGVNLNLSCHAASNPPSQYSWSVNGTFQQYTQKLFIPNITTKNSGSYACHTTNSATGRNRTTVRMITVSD

T5: Human CEACAM7 on HEK293T cells (human, UniProt Q14002 36-242)
T5 construct: Stably transfected HEK293T cells; also called hCEACAM7
T5 sequence: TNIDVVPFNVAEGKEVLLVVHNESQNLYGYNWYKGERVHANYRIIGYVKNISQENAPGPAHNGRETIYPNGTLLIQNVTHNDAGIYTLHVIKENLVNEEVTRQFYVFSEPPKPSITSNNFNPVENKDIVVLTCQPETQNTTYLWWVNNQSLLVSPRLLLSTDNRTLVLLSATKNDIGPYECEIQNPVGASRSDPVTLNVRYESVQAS

T6: Human CEACAM5 on cells (human, UniProt P06731 35-685)
T6 construct: also called hCEACAM5; CD66e
T6 sequence: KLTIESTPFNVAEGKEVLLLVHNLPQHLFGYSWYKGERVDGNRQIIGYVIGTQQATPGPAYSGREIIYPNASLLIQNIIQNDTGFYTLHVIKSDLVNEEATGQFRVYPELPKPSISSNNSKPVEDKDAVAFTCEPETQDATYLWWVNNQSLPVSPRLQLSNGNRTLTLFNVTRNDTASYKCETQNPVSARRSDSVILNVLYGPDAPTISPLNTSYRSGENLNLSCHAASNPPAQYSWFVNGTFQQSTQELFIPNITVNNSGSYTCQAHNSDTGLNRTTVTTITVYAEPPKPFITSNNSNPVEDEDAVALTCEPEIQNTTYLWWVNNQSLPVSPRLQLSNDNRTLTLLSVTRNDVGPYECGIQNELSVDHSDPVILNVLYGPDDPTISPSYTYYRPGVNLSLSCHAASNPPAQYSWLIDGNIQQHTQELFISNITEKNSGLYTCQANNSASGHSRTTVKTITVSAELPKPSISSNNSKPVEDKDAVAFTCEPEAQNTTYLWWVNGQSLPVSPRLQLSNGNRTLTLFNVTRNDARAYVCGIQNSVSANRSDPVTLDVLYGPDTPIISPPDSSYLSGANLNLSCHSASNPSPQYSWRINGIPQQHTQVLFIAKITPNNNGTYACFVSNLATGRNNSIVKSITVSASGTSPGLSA

T7: Human CEACAM6 on HEK293T cells (human, UniProt P40199 35-320)
T7 construct: Stably transfected HEK293T cells; also called hCEACAM6
T7 sequence: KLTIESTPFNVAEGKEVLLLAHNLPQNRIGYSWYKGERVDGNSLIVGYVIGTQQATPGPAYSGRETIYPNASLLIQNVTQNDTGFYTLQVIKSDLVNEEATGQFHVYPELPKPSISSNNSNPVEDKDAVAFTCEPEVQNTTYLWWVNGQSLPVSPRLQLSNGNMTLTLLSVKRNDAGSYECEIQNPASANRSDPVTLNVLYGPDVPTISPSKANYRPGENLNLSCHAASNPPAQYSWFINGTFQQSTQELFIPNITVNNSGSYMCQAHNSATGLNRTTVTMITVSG

T8: Cynomolgus monkey CEACAM5 on HEK293T cells (cynomolgus monkey)
T8 construct: Stably transfected HEK293T cells; also called cyCEACAM5; cyno CEACAM5
T8 chain: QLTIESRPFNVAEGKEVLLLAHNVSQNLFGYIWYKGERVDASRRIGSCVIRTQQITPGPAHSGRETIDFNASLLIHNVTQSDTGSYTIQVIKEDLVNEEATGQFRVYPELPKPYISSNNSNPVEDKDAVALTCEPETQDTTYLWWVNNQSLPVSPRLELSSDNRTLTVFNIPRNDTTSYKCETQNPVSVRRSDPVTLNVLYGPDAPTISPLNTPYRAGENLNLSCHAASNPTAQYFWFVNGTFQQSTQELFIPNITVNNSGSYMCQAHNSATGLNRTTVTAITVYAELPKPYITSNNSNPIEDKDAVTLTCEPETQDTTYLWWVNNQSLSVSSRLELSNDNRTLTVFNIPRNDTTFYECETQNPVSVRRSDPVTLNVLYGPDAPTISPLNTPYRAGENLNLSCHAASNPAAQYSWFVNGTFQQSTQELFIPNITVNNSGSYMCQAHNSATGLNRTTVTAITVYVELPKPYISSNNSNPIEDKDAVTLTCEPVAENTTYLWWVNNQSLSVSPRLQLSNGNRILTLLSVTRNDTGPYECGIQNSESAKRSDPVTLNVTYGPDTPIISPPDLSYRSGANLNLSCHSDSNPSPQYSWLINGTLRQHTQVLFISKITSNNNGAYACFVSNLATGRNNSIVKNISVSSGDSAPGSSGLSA

T9: CEACAM5 recombinant protein (human CEACAM5, Example 2) (human, UniProt P06731 35-685, limits assumed)
T9 construct: also called immobilized CEACAM5 recombinant protein
T9 sequence: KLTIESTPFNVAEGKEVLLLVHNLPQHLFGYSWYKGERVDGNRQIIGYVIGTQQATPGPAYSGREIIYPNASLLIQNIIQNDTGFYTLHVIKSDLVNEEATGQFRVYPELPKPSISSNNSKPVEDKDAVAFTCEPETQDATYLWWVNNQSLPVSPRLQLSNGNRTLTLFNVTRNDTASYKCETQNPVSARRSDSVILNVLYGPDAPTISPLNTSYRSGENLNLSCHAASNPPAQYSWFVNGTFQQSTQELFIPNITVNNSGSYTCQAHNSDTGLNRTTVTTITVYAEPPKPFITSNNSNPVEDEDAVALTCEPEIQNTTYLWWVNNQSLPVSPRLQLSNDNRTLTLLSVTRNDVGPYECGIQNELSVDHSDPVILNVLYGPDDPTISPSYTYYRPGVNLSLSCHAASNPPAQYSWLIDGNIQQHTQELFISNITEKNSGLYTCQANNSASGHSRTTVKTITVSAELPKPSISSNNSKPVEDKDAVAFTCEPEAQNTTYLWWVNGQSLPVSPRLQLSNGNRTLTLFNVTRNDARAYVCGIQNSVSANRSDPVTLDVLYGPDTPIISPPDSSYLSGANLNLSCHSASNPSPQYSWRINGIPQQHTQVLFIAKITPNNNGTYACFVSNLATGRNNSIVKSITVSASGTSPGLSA


Tests used:
[1] = molecular target: T1, hCEACAM5 A2-B2 domains fragment (A2B2) …; assay: BLI (Octet HTX), monovalent and bivalent methods
Experimental: (§1) Then, biosensors were incubated in kinetic buffer to allow for antibody dissociation to occur (1000 seconds). Sensorgrams capturing the association and dissociation of antibody from recombinant protein were generated at 30° C. on an Octet HTX system (Fortebio). Reference biosensors with immobilized recombinant protein were measured in the absence of test article. Negative control biosensors without immobilized recombinant protein were assessed with antibodies present at 500 nm to verify the absence of nonspecific binding of the antibodies to the Ni-NTA biosensors themselves. Data for BLI (biolayer interferometry) kinetic experiments were processed and analyzed on Fortebio's Data Analysis HT software. all sensorgrams were processed with a y-axis alignment to an average of the last 5 seconds of the baseline and an inter-step correction aligned to the dissociation step, the affinity constants were calculated by globally fitting the sensorgrams with a 1:1 langmuir adsorption isotherm model (Rmax unlinked) after a reference subtraction of the probe-loaded sensor in absence of analyte.
(§2) For testing of antibody binding to the A2B2 and A3B3 fragments of human CEACAM5 with the monovalent method, the tested antibodies were diluted in immobilization buffer (0.1% BSA+0.02% Tween20, 1×PBS pH 7.4) and loaded onto AHC (anti-human fc) biosensors (Fortebio) at 4 μg/ml for 600 seconds. After baselining in immobilization buffer, then kinetic buffer (0.5% BSA, 0.2% Tween20, 1×PBS pH 7.4), serial dilution of CEACAM5 recombinant proteins containing a c-terminal polyhistidine tag (5000 nm) in kinetic buffer were allowed to associate with antibody immobilized on biosensors until the recombinant protein reached equilibrium with antibody (300 seconds). Then, biosensors were incubated in kinetic buffer to allow for recombinant protein dissociation to occur (1000 seconds). […] Reference biosensors with immobilized recombinant protein were measured in the absence of test article. Data for BLI (biolayer interferometry) kinetic experiments were processed and analyzed on Fortebio's Data Analysis HT software.

[2] = molecular target: T2, Extracellular domain (ECD) of …; assay: BLI (Octet HTX), monovalent and bivalent methods
Experimental: as §1, §2

[3] = molecular target: T3, hCEACAM5 A3-B3 domains fragment (A3B3) …; assay: BLI (Octet HTX), monovalent and bivalent methods
Experimental: as §1, §2

[4] = molecular target: T4, Human CEACAM8 on HEK293T cells; assay: flow cytometry on HEK293T cells expressing the target; background set by a non-binding antibody control
From the text: (§3) HEK293T cells were stably transfected to express human CEACAM1, cynomolgus CEACAM5, human CEACAM5, human CEACAM6, human CEACAM7, or human CEACAM8. Surface expression was confirmed by positive staining by multiple pan-CEACAM antibody clones by flow cytometry. […] The results are shown as fold signal over background, with background set by a non-binding antibody control in (Table 2).

[5] = molecular target: T5, Human CEACAM7 on HEK293T cells; assay: as above
From the text: as §3

Human CEACAM5 on cells = molecular target: T6, Human CEACAM5 on cells; assay: as above
From the text: as §3

[6] = molecular target: T7, Human CEACAM6 on HEK293T cells; assay: as above
From the text: as §3

[7] = molecular target: T8, Cynomolgus monkey CEACAM5 on HEK293T …; assay: as above
From the text: as §3

[8] = molecular target: T4, Human CEACAM8 on HEK293T cells; assay: flow cytometry on stably transfected HEK293T cells
From the text: as §3

[9] = molecular target: T5, Human CEACAM7 on HEK293T cells; assay: flow cytometry on stably transfected HEK293T cells
From the text: as §3

[10] = molecular target: T7, Human CEACAM6 on HEK293T cells; assay: flow cytometry on stably transfected HEK293T cells
From the text: as §3

[11] = molecular target: T8, Cynomolgus monkey CEACAM5 on HEK293T …; assay: flow cytometry on stably transfected HEK293T cells
From the text: as §3

[12] = molecular target: T9, CEACAM5 recombinant protein (human …); assay: BLI (Octet HTX), monovalent affinity to recombinant human CEACAM5

Row | Binder | binding result [1] | binding result [2] | binding result [3] | fold signal over background [4] [fold over background] | fold signal over background [5] [fold over background] | fold signal over background (Human CEACAM5 on cells) [fold over background] | fold signal over background [6] [fold over background] | fold signal over background [7] [fold over background] | binding result [8] | binding result [9] | binding result [10] | binding result [11] | Kd [12] [nM]
1 | SG-105.2E4 antibody (antibody, human IgG1, kappa) heavy: not shown light: EIVLTQSPGTLSLSPGERATLSCRASQSISSIYLAWYQHKPGQAPMLLIYGASSRATGIPDRFSGSGSGTDFTLTISRLEPEDFAVYYCQQFGSSPWTFGQGTKLEIKRTVAAPSVFIFPPSDEQLKSGTASVVCLLNNFYPREAKVQWKVDNALQSGNSQESVTEQDSKDSTYSLSSTLTLSKADYEKHKVYACEVTHQGLSSPVTKSFNRGEC | no binding | no binding (tested: up to 500 nm) | no binding | 0.5 | 1 | 18.7 | 0.8 | 1 | no binding | no binding | no binding | no binding | 3
2 | SG-105.2E4 EC4 antibody (antibody, human IgG1) heavy: not shown light: EIVLTQSPGTLSLSPGERATLSCRASQSISSIYLAWYQHKPGQAPMLLIYGASSRATGIPDRFSGSGSGTDFTLTISRLEPEDFAVYYCQQFGSSPWTFGQGTKLEIKRTVAAPCVFIFPPSDEQLKSGTASVVCLLNNFYPREAKVQWKVDNALQSGNSQESVTEQDSKDSTYSLSSTLTLSKADYEKHKVYACEVTHQGLSSPVTKSFNRGEC |  |  |  |  |  |  |  |  |  |  |  |  | 3.6
